By UniProt entry, the sequences of proteins in these tests, tags left out.
UniProt P25103, whole entry: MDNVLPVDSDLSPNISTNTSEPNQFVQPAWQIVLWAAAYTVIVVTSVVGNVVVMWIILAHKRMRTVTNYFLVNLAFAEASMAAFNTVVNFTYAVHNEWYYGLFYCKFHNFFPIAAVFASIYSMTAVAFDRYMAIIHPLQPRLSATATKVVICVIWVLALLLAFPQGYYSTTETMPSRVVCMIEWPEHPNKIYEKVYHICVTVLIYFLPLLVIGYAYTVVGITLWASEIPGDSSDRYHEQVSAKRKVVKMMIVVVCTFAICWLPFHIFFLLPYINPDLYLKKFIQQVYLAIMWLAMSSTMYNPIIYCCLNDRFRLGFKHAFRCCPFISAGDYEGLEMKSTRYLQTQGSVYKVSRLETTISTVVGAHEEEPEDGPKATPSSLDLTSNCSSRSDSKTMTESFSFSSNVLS
UniProt P21452, whole entry: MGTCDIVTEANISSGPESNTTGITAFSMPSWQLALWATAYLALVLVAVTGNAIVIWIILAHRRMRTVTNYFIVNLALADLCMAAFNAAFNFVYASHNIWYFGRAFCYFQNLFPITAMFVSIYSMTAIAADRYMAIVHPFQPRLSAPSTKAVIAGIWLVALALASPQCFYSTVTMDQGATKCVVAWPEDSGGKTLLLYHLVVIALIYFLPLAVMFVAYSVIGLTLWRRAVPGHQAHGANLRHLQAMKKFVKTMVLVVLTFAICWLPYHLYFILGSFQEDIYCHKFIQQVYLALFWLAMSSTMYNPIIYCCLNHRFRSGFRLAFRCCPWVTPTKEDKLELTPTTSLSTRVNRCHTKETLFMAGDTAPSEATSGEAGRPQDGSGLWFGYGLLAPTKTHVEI

According to ChEMBL document CHEMBL1134946, “Synthesis and NK(1)/NK(2) binding activities of a series of diacyl-substituted 2-arylpiperazines” (Bioorg Med Chem Lett, 2002):

Legend:
Substance-P receptor = Substance-P receptor (Homo sapiens, UniProt P25103); test: Binding affinity in membrane preparations containing recombinant human Tachykinin receptor 1 in CHO cells by using [3H]-Sar SP as the radioligand.; format: cell membranes
Substance-K receptor = Substance-K receptor (Homo sapiens, UniProt P21452); test: Binding affinity in membrane preparations containing recombinant human Tachykinin receptor 2 in CHO cells by using [3H]NKA as the radioligand.; format: cell membranes

Row | Compound | Ki (Substance-P receptor) | Ki (Substance-K receptor)
1 | O=C(c1cc(C(F)(F)F)cc(C(F)(F)F)c1)N1CCN(C(=O)CNC2CCN(Cc3ccccc3)CC2)[C@@H](c2ccc(Cl)c(Cl)c2)C1 | 1.8 nM | 270 nM
2 | Cc1cc(C)cc(C(=O)N2CCN(C(=O)CNC3CCN(Cc4ccccc4)CC3)[C@@H](c3ccc(Cl)c(Cl)c3)C2)c1 | – | 219 nM

Now those with a lower Ki (Substance-K receptor), led by results:

Row | Ki (Substance-P receptor) | Ki (Substance-K receptor) | Compound
3 | 5.3 nM | 17 nM | O=C(c1cc(C(F)(F)F)cc(C(F)(F)F)c1)N1CCN(C(=O)CNC2CCN(Cc3ccccc3)CC2)C(c2ccc(Cl)c(Cl)c2)C1 (configuration not stated)
4 | – | 4.9 nM | Cc1cc(C)cc(C(=O)N2CCN(C(=O)CNC3CCN(Cc4ccccc4)CC3)C(c3ccc(Cl)c(Cl)c3)C2)c1 (configuration not stated)
5 | – | 3.4 nM | Cc1cc(C)cc(C(=O)N2CCN(C(=O)CNC3CCN(Cc4ccccc4)CC3)[C@H](c3ccc(Cl)c(Cl)c3)C2)c1
